# Results taken from PubChem BioAssay AID593 (National Center for Advancing Translational Sciences (NCATS), 2007).
# This is a selection; strong and weak results do not stand in their true shares. Results filed as inconclusive are left out. The source made the active and inactive calls. Cut-off read from the data, not from the text of the source: active = max fluorescein-equivalent concentration above about 10 nM; inconclusive = between about 1.1 nM and that limit; inactive = weaker than that.
# Experiment: qHTS Assay for Spectroscopic Profiling in Fluorescein Spectral Region
# Settings: Compound autofluorescence, 480/540 nm, fluorescein-equivalent
# Description: NIH Molecular Libraries Screening Centers Network [MLSCN]
# NIH Chemical Genomics Center [NCGC]
# Occasionally, the artifactual effect may originate from the compound's own spectral or other biophysical properties which generally tend to track its assay concentration. Pre-screening/profiling the library with respect to the compounds' spectral properties should help one exclude false positives early on. While the most informative fluorescent profiling data set is obtained by performing a full excitation and emission scan of each well by using a monochromator-based plate reader, such an approach is practical only on a very limited scale as scanning each well requires long time. An alternative approach, applied here, is to perform plate reader scans using selected excitation and emission wavelength pairs to generate a multidimensional relational database that correlates compound concentration and the respective relative fluorescence intensity at a given wavelength set. A standard curve of fluorescein present on each plate as six-point concentration series, was used to compute a normalized fluorescence response, termed dye-equivalent concentration, for each compound at each concentration.
# NCGC Assay Protocol Summary:
# 100 mM Tris buffer, pH 8.0
# The wells in columns 1 through 4 of a Kalypsys polypropylene 1536-well compound plate were filled with standard solutions of fluorophore corresponding to the spectral region of interest. Solutions of Fluorescein were placed in the following wells: Q1, R1: 3 mM, Q2, R2: 300 uM, Q3, R3: 30 uM, Q4, R4: zero (DMSO), S1, T1: 3 uM, S2, T2: 900 nM, S3, T3: 300 nM, S4, T4: zero (DMSO).
# Six uL of buffer were dispensed to 1536-well Greiner black plates. Compounds and dye standards (23 nL) were transferred via Kalypsys PinTool. The plates were incubated for 15 min at room temperature, and then read on ViewLux (Perkin-Elmer) High-throughput CCD imager using 480 nm and 540 nm excitation and emission filter set.
# Keywords: NIH Roadmap, MLSCN, MLI, MLSMR, qHTS, NCGC, Fluorescein, Fluorescent Profiling.
row,SMILES,outcome
1,CCOc1ncccc1C(=O)NCC1(N2CCOCC2)CCCCC1,inactive
2,O=C(O)C1(Nc2ccccc2)CCN(Cc2ccccc2)CC1,inactive
3,N/C(=N\O)c1c(N)no[n+]1[O-],inactive
4,N#CC1(Nc2ccccc2)CCN(CCc2ccccc2)CC1,inactive
5,NC1CCCCC1.NP(=O)(O)N(CCCl)CCCl,inactive
6,O=C(OC1CN2CCC1CC2)C1c2ccccc2Oc2ccccc21 (stereo unspecified),inactive
